These are literature values, as cited in US5677346A, “Treating urinary incontinence using (S)-desethyloxybutynin” (Sepracor, Inc., priority 1995, dated 1997).

For this data set, the system named is muscarinic cholinergic receptors. Conditions: antimuscarinic side effects; cited from earlier work.

For the compound `CCN(CC)CC#CCOC(=O)C(O)(c1ccccc1)C1CCCCC1` (racemic) [RS-OXY, 4-(diethylamino)-2-butynyl α-cyclohexyl-α-hydroxybenzeneacetate, reference compound], the “side effects (in words)” value was “xerostomia (dry mouth) and mydriasis (dilated pupils), which involve muscarinic cholinergic receptors, are very common side effects”.
